Earlier results in patent publication US9394339B2, “Stabilized formulations of peptides and proteins protecting against non-enzymatic degradation” (Lyotropic Therapeutics, Inc., priority 2007, dated 2016).

Details: aqueous solution, pH 7.4, 37° C., Tris-HCl buffer

## Ferritin (2FHA): human protein
  T1/10 (time to 10% degradation by deamidation): 7.0 days
